This is an account of results in PubChem BioAssay AID1347075 (National Center for Advancing Translational Sciences (NCATS), 2019).

Values joined by “and” are separate entries in the source; they are usually repeats but may differ in a detail not shown here. Identical values can stand only once. The entries are a selection whose mix differs from that of the whole data set. Some results for these compounds are left out of this collection, so the calls shown say nothing about other tests. Inconclusive results are not listed. Active and inactive are the calls of the source. The call rests on the fitted dose curve; in most records, active means well fitted cell-killing curve with a large enough effect; inconclusive means small, poorly fitted or top-dose-only effect, or effect the other way; inactive means flat fitted curve, though single readings scatter.
On the % scale 0 is the no-effect control and ±100 the full control effect.

This experiment is described as follows: qHTS assay for MDR1-selective chemotherapeutics: Primary screen using the parental adenocarcinoma cell KB-3-1. Further: nearly all actives have a fitted effect of over 60% in size. As to conditions: KB-3-1 viability, CellTiter-Glo ATP luminescence, 72 h; at 46.1 µM (top of the series). From the text:
A prime difficulty in effectively treating cancer is the development of cellular resistance to multiple structurally unrelated anticancer drugs, a phenomenon known as multidrug resistance (MDR). […] Numerous strategies to overcome P-gp-mediated MDR have been explored, including the design of drugs that evade recognition and efflux, and development of inhibitors to block efflux and restore drug accumulation. […] An alternative approach is to exploit resistance by identifying drugs that target MDR cells over the non-resistant parental cells from which they were selected. […] The development of MDR1-selective agents represents a new strategy for resolving multidrug resistance, as it remains a long-standing clinical challenge for cancer chemotherapy.
Our goal is to identify compounds that selectively kill P-gp-expressing MDR cells. We will identify MDR1-selective compounds by comparing toxicity of compounds in the screening library against parental, drug-naive (KB-3-1) adenocarcinoma cells as well as their drug-selected MDR sub-line (KB-V1). The differential toxicity of compounds against these two cell lines will be used to identify MDR1-selective compounds, whose cytotoxicity is potentiated, rather than diminished, by P-gp expression. This assay will be utilized to conduct a quantitative high-throughput screen (qHTS) in collaboration with the NIH Chemical Genomics Center to identify selective agents, and probe hits arising from the screen will be validated using secondary assays and characterized through a well-established follow-up research program. This screen was run against the entire NCGC library collection of about 400,000 compounds.
NIH Molecular Libraries Probe Production Network [MLPCN]
NIH Chemical Genomics Center [NCGC]
PI: Michael Gottesman PhD, National Cancer Institute, NIH
Briefly, 5 microL of media containing either KB-3-1 cells (columns 1-2, 4-48) are dispensed into Greiner white, treated solid-bottom 1536-well assay plates (media-only control is added to column 3). Compounds are then transferred via Kalypsys pin tool equipped with 1536-pin array (10 nL slotted pins, V&P Scientific, San Diego, CA). Following addition of compound, the plates are incubated at 37 degrees C for 72 hours. CellTiter-Glo (2.5 µL/well) is then added, and the plates are read in a ViewLux reader (Perkin-Elmer, clear luminescence filter, 1 second exposure, 1x binning) following a 10 minute incubation. All cells are dispensed in DMEM phenol-red free media containing 10% FBS.
Library plates were screened starting from the lowest and proceeding to the highest concentration. Vehicle-only plates, with DMSO being pin-transferred to columns 5-48, will be inserted uniformly at the beginning and the end of each library in order to monitor and record any shifts in the background, which can be affected by reagent dispensers or loss in enzyme activity over time. Screening data will be corrected, normalized, and concentration-effect relationships will be derived by using publicly-available NCGC, NCATS curve fitting algorithms (http://ncgc.nih.gov/pub/openhts).
`Cc1ccc(C(=O)NCC2(N3CCCCC3)CCCCC2)cc1`: the activity change, negative = cytotoxic was inactive: -4.33%.
The result for `CN(C)C1(CNC(=O)c2ccccc2F)CCCCC1` reads inactive: 6.38%; that for `COc1cc(SC)ccc1C(=O)NCC1(N(C)C)CCCCC1`, inactive: 22.9%.
Regarding `CN(C)C1(CNC(=O)c2cccc(Cl)c2)CCCCC1`, the activity change, negative = cytotoxic is inactive: -1.02%.
Take `CCN(CC)CC(C)C(C)OC(=O)C(O)(c1ccccc1)c1ccccc1` (stereo not given): the activity change, negative = cytotoxic is inactive: 4.88%.
Take `CC(C)N1C(=O)CC2(CCN(CCOC(=O)C(O)(c3ccccc3)c3ccccc3)CC2)C1=O`: the activity change, negative = cytotoxic was inactive: 23.3%.
In the case of `CN1[C@@H]2CC[C@H]1CC(OC(=O)C(O)(c1ccccc1)c1ccccc1)C2` (stereo not given in full), the activity change, negative = cytotoxic is inactive: 0.624%.
As for `O=C(NCC1(N2CCCCC2)CCCCC1)c1cc([N+](=O)[O-])ccc1Cl`, the figure is inactive: -4.36%; as for `CCOc1cccc(C(=O)NCC2(N(C)C)CCCCC2)c1`, inactive: 11.1%; as for `COc1ccc(C(=O)NCC2(N(C)C)CCCCC2)cc1`, inactive: 7.8%.
Regarding `O=C(NCC1(N2CCCCC2)CCCCC1)c1cccc(Br)c1`, the activity change, negative = cytotoxic is inactive: -14.7%.
As to `Cc1cc(C(=O)NCC2(N3CCCCC3)CCCCC2)ccc1[N+](=O)[O-]`, the activity change, negative = cytotoxic was inactive: 11.1%.
The result for `CCN1CCCC(OC(=O)C2(O)c3ccccc3C=Cc3ccccc32)C1` (stereo not given) reads inactive: 4.15%; that for `O=C(NCC1(N2CCCCC2)CCCCC1)c1cc(F)c(F)cc1Cl`, inactive: 4.08%; that for `C=CCN1CCN(CCOC(=O)C(O)(c2ccccc2)c2ccccc2)CC1`, inactive: 1.3%.
The result for `CCCCOc1ccccc1C(=O)NCC1(N(C)C)CCCCC1` reads inactive: 1.73%; that for `CN(C)C1CCCC1OC(=O)C(O)(c1ccccc1)c1ccccc1` (stereo not given), inactive: 13.6%.
Turning to `CN(C)c1ccc(C(=O)NCC2(N(C)C)CCCCC2)cc1`, the activity change, negative = cytotoxic is inactive: 17.3%.
Take `CN(C)C1(CNC(=O)c2ccccc2[N+](=O)[O-])CCCCC1`: the activity change, negative = cytotoxic was inactive: 13%.
As for `Cc1ccccc1C(=O)NCC1(N2CCCCC2)CCCCC1`, the figure is inactive: -1.26%; as for `O=C(NCC1(N2CCCCC2)CCCCC1)c1cccc(Cl)c1`, inactive: -2.38%; as for `COc1ccc(Cl)cc1C(=O)NCC1(N(C)C)CCCCC1`, inactive: 6.89%.
The result for `COc1cccc(C(=O)NCC2(N3CCCCC3)CCCCC2)c1` reads inactive: 0.0402%; that for `COc1ccc(C(=O)NCC2(N(C)C)CCCCC2)cc1Cl`, inactive: 6.32%; that for `COc1cc(C(=O)NCC2(N(C)C)CCCCC2)c([N+](=O)[O-])cc1OC`, inactive: -2.15%.
As for `CN(C)C1(CNC(=O)c2ccc(Br)cc2)CCCCC1`, the activity change, negative = cytotoxic was inactive: -6.16%.
As for `CC(C)Oc1ccc(C(=O)NCC2(N(C)C)CCCCC2)cc1`, the figure is inactive: 1.35% and inactive: 9.61%; as for `CN(C)c1cccc(C(=O)NCC2(N(C)C)CCCCC2)c1`, inactive: -3.45%.
With `C=C(C)C#CC(O)(C(=O)OC1CCN(C)CC1)c1ccccc1` (stereo not given), the activity change, negative = cytotoxic is inactive: 9.04%.
Turning to `COc1ccc(Br)c(C(=O)NCC2(N3CCCCC3)CCCCC2)c1`, the activity change, negative = cytotoxic is inactive: -0.885%.
As to `Cc1cccc(C(=O)NCC2(N(C)C)CCCCC2)c1`, the activity change, negative = cytotoxic was inactive: 1.01%.
As for `COc1cc(C(=O)NCC2(N(C)C)CCCCC2)cc(OC)c1OC`, the activity change, negative = cytotoxic is inactive: -2.58%.
Take `CC(C)COc1ccc(C(=O)NCC2(N(C)C)CCCCC2)cc1`: the activity change, negative = cytotoxic is inactive: -4.89%.
Regarding `COc1cccc(C(=O)NCC2(N3CCOCC3)CCCCC2)c1`, the activity change, negative = cytotoxic is inactive: -0.555%.
Take `O=C(OC1CN2CCC1CC2)C(CO)(c1ccccc1)c1ccccc1` (stereo not given): the activity change, negative = cytotoxic was inactive: 2.23%.
